Amino acid sequences for entries named in this document (tags omitted).
UniProt P23944, whole entry, looked up: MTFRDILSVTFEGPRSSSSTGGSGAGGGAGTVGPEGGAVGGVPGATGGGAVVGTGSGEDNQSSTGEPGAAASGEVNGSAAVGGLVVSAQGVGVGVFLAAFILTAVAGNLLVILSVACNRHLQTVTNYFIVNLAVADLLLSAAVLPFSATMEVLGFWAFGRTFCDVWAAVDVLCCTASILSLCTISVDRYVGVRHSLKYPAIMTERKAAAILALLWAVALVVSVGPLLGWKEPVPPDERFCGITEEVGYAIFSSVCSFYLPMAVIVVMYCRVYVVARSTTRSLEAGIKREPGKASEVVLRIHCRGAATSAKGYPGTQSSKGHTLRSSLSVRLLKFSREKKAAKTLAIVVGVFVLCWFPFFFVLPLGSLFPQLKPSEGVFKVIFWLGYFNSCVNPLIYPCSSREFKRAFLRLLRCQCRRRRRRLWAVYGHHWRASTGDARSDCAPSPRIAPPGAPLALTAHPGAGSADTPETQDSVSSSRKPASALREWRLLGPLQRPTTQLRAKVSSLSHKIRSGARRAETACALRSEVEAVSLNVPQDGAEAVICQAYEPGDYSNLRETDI

In BindingDB's records for 16686532 (Universit&#224, 2006):

Molecular target: Alpha-1D adrenergic receptor (Rattus norvegicus, UniProt P23944)
Assay: Vasodilator activity assessed as ability to relax phenylephrine-induced contraction of Wistar rat aortic strips

With `CCCO[N+](=O)[O-]` the EC50 was 41 µM.
